{"source": "patent US20120135931A1", "about": "(priority 2009, published 2012)", "molecular_target": "human plasma derived thrombin (human), P00734", "test": "cell-based or functional assay", "data": [{"binder": "MHKTAPPFDFEAIPEEYL (modifications not checked)", "note": "[MH18]", "values": [{"measurement": "IC50, inhibition of thrombin amidolytic activity on S2238, 20 min pre-incubation", "result": 11.7, "unit": "nM"}]}]}
